For 15 molecules, growth results are on record in PubChem BioAssay (NCI).

Among the test systems are NCI/ADR-RES ovarian; T-47D breast; MDA-MB-435 melanoma; SW-620 colon; MCF7 breast; HCT-116 colon; HCC-2998 colon; KM12 colon; BT-549 breast.
Holding throughout (assay): NCI-60 one-dose screen, 48 h (100 = growth as untreated, 0 = no growth, -100 = all killed)
Common to all, as to settings: 10 µM

Each structure is given as a SMILES string. This is a selection; strong and weak results do not stand in their true shares.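 Growth was measured after 48 h exposure to one concentration of compound in 96-well plates. Values under 10 count as active.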 Active and inactive are the calls of the source.

Take `O=[N+]([O-])c1cc([N+](=O)[O-])c(NCCO)c([N+](=O)[O-])c1`: the growth in the test with NCI/ADR-RES ovarian was inactive: 90.1%; in the test with T-47D breast, inactive: 102%; with MDA-MB-435 melanoma it was inactive: 69.4%; in the test with SW-620 colon it was inactive: 69.8%; in the test on MCF7 breast, inactive: 71.5%; with HCT-116 colon, inactive: 73.7%. Also, the growth in the test with HCC-2998 colon is inactive: 119%; in the test with KM12 colon it was inactive: 92.9%.
For `O=[N+]([O-])c1ccc(Oc2c([N+](=O)[O-])cc([N+](=O)[O-])cc2[N+](=O)[O-])cc1`, the growth in the test on NCI/ADR-RES ovarian was inactive: 104%; with T-47D breast, inactive: 113%; with BT-549 breast, inactive: 117%; with MDA-MB-435 melanoma, inactive: 99.4%; in the test on SW-620 colon it was inactive: 103%; in the test with MCF7 breast it was inactive: 87.4%. The growth in the test with HCT-116 colon was inactive: 102%; with HCC-2998 colon, inactive: 102%; with KM12 colon it was inactive: 107%.
For the molecule `O=[N+]([O-])OCC(O[N+](=O)[O-])C(CO[N+](=O)[O-])O[N+](=O)[O-]` (stereo not drawn), the growth was inactive: 110% in the test with NCI/ADR-RES ovarian; inactive: 108% in the test on T-47D breast; inactive: 110% with BT-549 breast; inactive: 116% in the test on MDA-MB-435 melanoma; inactive: 107% in the test with MCF7 breast; inactive: 104% in the test with HCT-116 colon. Moreover, the growth in the test with HCC-2998 colon was inactive: 101%; with KM12 colon it was inactive: 103%.
As for `NN/C(N)=N/[N+](=O)[O-]`, the growth is inactive: 96.7% in the test on NCI/ADR-RES ovarian; inactive: 93.9% in the test on T-47D breast; inactive: 90.9% with BT-549 breast; inactive: 106% in the test on MDA-MB-435 melanoma; inactive: 108% in the test on SW-620 colon; inactive: 98.9% in the test with HCT-116 colon. The results for the growth in the test on HCC-2998 colon and in the test on KM12 colon were inactive: 94.7% and inactive: 111%, respectively.
As for `CN1CCN(CCOC(=O)C(O)(c2ccccc2)c2ccccc2)CC1`, the growth in the test on NCI/ADR-RES ovarian is inactive: 93.1%; in the test with T-47D breast, inactive: 100%; in the test on BT-549 breast it was inactive: 103%; with MDA-MB-435 melanoma, inactive: 102%; with SW-620 colon, inactive: 97.1%; in the test on MCF7 breast it was inactive: 93.2%. Besides, the results for the growth with HCT-116 colon, in the test on HCC-2998 colon and in the test on KM12 colon were inactive: 99.7%, inactive: 83.6% and inactive: 93.1%, respectively.
Take `CCN(CC)CCOC(=O)C(O)(c1ccccc1)c1cc(C)c(C)c(C)c1C` (stereo not drawn): the growth in the test with NCI/ADR-RES ovarian was inactive: 101%; with T-47D breast, inactive: 84.9%; in the test on BT-549 breast, inactive: 89.9%; in the test on MDA-MB-435 melanoma it was inactive: 106%; in the test with SW-620 colon it was inactive: 102%; with MCF7 breast, inactive: 88.5%. Further, the growth with HCT-116 colon was inactive: 91.9%; in the test on HCC-2998 colon, inactive: 92.1%; with KM12 colon, inactive: 104%.
In the case of `Cc1ccc(Nc2c([N+](=O)[O-])cc([N+](=O)[O-])cc2[N+](=O)[O-])cc1`, the growth is inactive: 90.6% with NCI/ADR-RES ovarian; inactive: 97.2% in the test on BT-549 breast; inactive: 98.4% with MDA-MB-435 melanoma; inactive: 92.9% with SW-620 colon; inactive: 71.1% in the test on MCF7 breast; inactive: 84.5% in the test with HCT-116 colon. The growth with HCC-2998 colon is inactive: 106%; with KM12 colon, inactive: 91.5%.
As for `CC(C)N1CCN(CCOC(=O)C(O)(c2ccccc2)c2ccccc2)CC1`, the growth is inactive: 104% in the test with NCI/ADR-RES ovarian; inactive: 86.3% in the test with T-47D breast; inactive: 93.6% with BT-549 breast; inactive: 101% in the test on SW-620 colon; inactive: 90.9% in the test on MCF7 breast; inactive: 89.6% in the test on HCT-116 colon. The growth in the test on HCC-2998 colon was inactive: 95.5%; in the test on KM12 colon it was inactive: 101%.
Take `O=[N+]([O-])OCCOc1ccc([N+](=O)[O-])cc1[N+](=O)[O-]`: the growth in the test with NCI/ADR-RES ovarian is inactive: 109%; with T-47D breast it was inactive: 99.2%; in the test on BT-549 breast it was inactive: 108%; in the test with MDA-MB-435 melanoma, inactive: 99.2%; with SW-620 colon it was inactive: 105%; in the test on MCF7 breast, inactive: 91.3%. For the same molecule, the growth was inactive: 105% with HCT-116 colon, inactive: 106% with HCC-2998 colon and inactive: 114% in the test with KM12 colon.
Take `Clc1ccccc1SCCBr`: the growth with NCI/ADR-RES ovarian is inactive: 107%; in the test on T-47D breast, inactive: 85%; with MDA-MB-435 melanoma, inactive: 107%; in the test with SW-620 colon, inactive: 101%; in the test with MCF7 breast, inactive: 102%; in the test with HCT-116 colon it was inactive: 107%. The results for the growth in the test with HCC-2998 colon and in the test with KM12 colon were inactive: 94.4% and inactive: 92.3%, respectively.
Regarding `O=[N+]([O-])c1cc([N+](=O)[O-])c(Nc2ccc(Cl)cc2)c([N+](=O)[O-])c1`, the growth in the test on NCI/ADR-RES ovarian was active: 7.16%; in the test with T-47D breast, active: 8.02%; in the test with BT-549 breast it was inactive: 47.5%; in the test on MDA-MB-435 melanoma it was inactive: 67.4%; in the test on SW-620 colon it was inactive: 14%; in the test on MCF7 breast, active: 3.64%. Besides, the results for the growth in the test with HCT-116 colon, with HCC-2998 colon and in the test on KM12 colon were inactive: 13%, inactive: 29.3% and active: 7.59%, respectively.
On to `OCCSCCO`, for which the growth in the test with NCI/ADR-RES ovarian was inactive: 108%; in the test with T-47D breast, inactive: 103%; in the test on BT-549 breast it was inactive: 104%; in the test on MDA-MB-435 melanoma, inactive: 95.9%; in the test on SW-620 colon, inactive: 110%; in the test with HCT-116 colon, inactive: 100%. Further, the growth is inactive: 104% with HCC-2998 colon and inactive: 105% in the test with KM12 colon.
In the case of `O=[N+]([O-])c1ccc(OP2(=O)COCCO2)cc1` (stereo not drawn), the growth in the test on NCI/ADR-RES ovarian was inactive: 99.4%; in the test on T-47D breast, inactive: 98%; with BT-549 breast, inactive: 123%; in the test with MDA-MB-435 melanoma, inactive: 110%; with SW-620 colon it was inactive: 103%; with MCF7 breast, inactive: 104%. Further, the growth in the test with HCT-116 colon is inactive: 103%; in the test with HCC-2998 colon, inactive: 106%; with KM12 colon, inactive: 103%.
`CP(=O)(OCCCl)N(CCCl)CCCl` (stereo not drawn): the growth in the test with NCI/ADR-RES ovarian is inactive: 104%; in the test on T-47D breast, inactive: 88.5%; in the test on BT-549 breast it was inactive: 107%; in the test on MDA-MB-435 melanoma it was inactive: 98.3%; with SW-620 colon, inactive: 102%; in the test on MCF7 breast it was inactive: 100%. Also, the results for the growth in the test with HCT-116 colon, in the test on HCC-2998 colon and with KM12 colon were inactive: 98.3%, inactive: 98.2% and inactive: 99%, respectively.
As for `CP(=S)(Cl)N(CCCl)CCCl` (stereo not drawn), the growth in the test with NCI/ADR-RES ovarian was inactive: 106%; in the test on T-47D breast, inactive: 99.4%; in the test on BT-549 breast it was inactive: 111%; in the test with MDA-MB-435 melanoma it was inactive: 104%; in the test with SW-620 colon it was inactive: 98.1%; in the test on MCF7 breast, inactive: 99.7%. The growth in the test on HCT-116 colon was inactive: 102%; in the test on HCC-2998 colon, inactive: 99.8%; in the test with KM12 colon, inactive: 118%.
